# Membrane permeability of cyclic peptides

Collected by the curators of CycPeptMPDB (Li et al. 2023) from Townsend et al. 2020, doi:10.26434/chemrxiv.13335941.v1.

PAMPA is the parallel artificial membrane permeability assay, which has no cells and reads passive diffusion.
Permeability is given as log10 of P in cm/s; higher (less negative) is more permeable.

compound,PAMPA (log10 cm/s)
CCCN1CC(=O)N[C@@H](CC(C)C)C(=O)N[C@H](CC(C)C)C(=O)N2CCC[C@H]2C(=O)N(C)[C@@H](CC(C)C)C(=O)N[C@@H](Cc2ccccc2)C(=O)N2CCC[C@@H]2C1=O,-5.46
CC(C)C[C@H]1C(=O)N(Cc2ccccc2)CC(=O)N2CCC[C@H]2C(=O)N(C)[C@@H](CC(C)C)C(=O)N[C@@H](Cc2ccccc2)C(=O)N[C@@H](C)C(=O)N1C,-5.52
CC(C)C[C@@H]1C(=O)N2CCC[C@H]2C(=O)N(C)[C@@H](CC(C)C)C(=O)N[C@@H](Cc2ccccc2)C(=O)N2CCC[C@H]2C(=O)N[C@H](C)C(=O)N(C)[C@@H](CC(C)C)C(=O)N1C,-5.20
CCCN1CC(=O)N[C@H](CC(C)C)C(=O)N[C@@H](CC(C)C)C(=O)N2CCC[C@H]2C(=O)N[C@H](CC(C)C)C(=O)N[C@@H](Cc2ccccc2)C(=O)N2CCC[C@@H]2C1=O,-6.26
CCCN1CC(=O)N(C)[C@@H](CC(C)C)C(=O)N[C@@H](Cc2ccccc2)CC(=O)N2CCC[C@H]2C(=O)N(C)[C@@H](CC(C)C)C(=O)N[C@@H](Cc2ccccc2)C(=O)N2CCC[C@H]2C1=O,-5.20
CC(C)C[C@@H]1NC(=O)[C@H](C)N(C)C(=O)[C@H](Cc2ccccc2)NC(=O)[C@@H](CC(C)C)N(C)C(=O)[C@@H]2CCCN2C(=O)[C@@H](CC(C)C)NC1=O,-5.07
CC(C)C[C@@H]1C(=O)N(C)[C@@H](CC(C)C)C(=O)N2CCC[C@H]2C(=O)N(Cc2ccccc2)CC(=O)N[C@@H](Cc2ccccc2)C(=O)N2CCC[C@H]2C(=O)N(C)[C@H](C)C(=O)N1C,-5.70
CC(C)C[C@@H]1NC(=O)[C@@H]2CCCN2C(=O)[C@H](CC(C)C)N(C)C(=O)[C@@H](CC(C)C)NC(=O)[C@@H](C)N(C)C(=O)[C@@H]2CCCN2C(=O)[C@H](Cc2ccccc2)NC1=O,-6.86
CC(C)C[C@@H]1NC(=O)[C@@H](C)N(C)C(=O)[C@H](Cc2ccccc2)NC(=O)[C@@H](CC(C)C)NC(=O)[C@H]2CCCN2C(=O)[C@@H](CC(C)C)NC1=O,-6.13
CC(C)C[C@@H]1NC(=O)C[C@H](Cc2ccccc2)NC(=O)[C@@H]2CCCN2C(=O)[C@H](Cc2ccccc2)NC(=O)[C@H](CC(C)C)N(C)C(=O)[C@H]2CCCN2C(=O)[C@H](CC(C)C)N(C)C1=O,-5.33
CC(C)C[C@@H]1NC(=O)[C@H](C)N(C)C(=O)[C@@H]2CCCN2C(=O)[C@H](Cc2ccccc2)NC(=O)[C@@H](CC(C)C)NC(=O)[C@@H]2CCCN2C(=O)CN(Cc2ccccc2)C1=O,-6.04
CC(C)C[C@@H]1C(=O)N2CCC[C@@H]2C(=O)N(C)[C@@H](CC(C)C)C(=O)N[C@@H](Cc2ccccc2)C(=O)N2CCC[C@@H]2C(=O)N(C)[C@H](C)C(=O)N[C@H](CC(C)C)C(=O)N1C,-5.21
CC(C)C[C@H]1C(=O)N2CCC[C@H]2C(=O)N(C)[C@@H](CC(C)C)C(=O)N[C@@H](Cc2ccccc2)C(=O)N2CCC[C@H]2C(=O)N(C)[C@H](C)C(=O)N(Cc2ccccc2)CC(=O)N1C,-5.45
CC(C)C[C@@H]1NC(=O)[C@@H]2CCCN2C(=O)[C@@H](CC(C)C)NC(=O)[C@H](CC(C)C)N(C)C(=O)[C@@H](C)N(C)C(=O)[C@@H]2CCCN2C(=O)[C@H](Cc2ccccc2)NC1=O,-6.32
CC(C)C[C@@H]1NC(=O)[C@H](C)N(C)C(=O)[C@H](Cc2ccccc2)NC(=O)[C@H](CC(C)C)N(C)C(=O)[C@H]2CCCN2C(=O)CN(Cc2ccccc2)C1=O,-5.56
CC(C)C[C@@H]1C(=O)N2CCC[C@H]2C(=O)N(C)[C@H](CC(C)C)C(=O)N[C@@H](Cc2ccccc2)C(=O)N2CCC[C@H]2C(=O)N[C@H](C)C(=O)N(C)[C@H](CC(C)C)C(=O)N1C,-5.65
CC(C)C[C@H]1NC(=O)[C@H](C)NC(=O)[C@H]2CCCN2C(=O)[C@H](Cc2ccccc2)NC(=O)[C@H](CC(C)C)N(C)C(=O)[C@@H]2CCCN2C(=O)[C@H](CC(C)C)N(C)C1=O,-5.73
CC(C)C[C@@H]1C(=O)N[C@@H](Cc2ccccc2)C(=O)N2CCC[C@@H]2C(=O)N[C@H](C)C(=O)N(C)[C@@H](CC(C)C)C(=O)N[C@@H](Cc2ccccc2)CC(=O)N2CCC[C@H]2C(=O)N1C,-5.55
CC(C)C[C@H]1C(=O)N(Cc2ccccc2)CC(=O)N2CCC[C@@H]2C(=O)N(Cc2ccccc2)CC(=O)N[C@@H](Cc2ccccc2)C(=O)N2CCC[C@H]2C(=O)N(C)[C@H](C)C(=O)N1C,-5.50
CC(C)C[C@@H]1C(=O)N[C@@H](Cc2ccccc2)C(=O)N[C@@H](C)C(=O)N(C)[C@@H](CC(C)C)C(=O)N[C@H](CC(C)C)C(=O)N2CCC[C@H]2C(=O)N1C,-5.35
CC(C)C[C@@H]1C(=O)N(Cc2ccccc2)CC(=O)N2CCC[C@H]2C(=O)N(C)[C@H](CC(C)C)C(=O)N[C@@H](Cc2ccccc2)C(=O)N2CCC[C@H]2C(=O)N(C)[C@@H](C)C(=O)N1C,-6.11
CC(C)C[C@@H]1NC(=O)[C@H]2CCCN2C(=O)C[C@H](Cc2ccccc2)NC(=O)[C@H](CC(C)C)N(C)C(=O)[C@@H](C)N(C)C(=O)[C@@H]2CCCN2C(=O)[C@H](Cc2ccccc2)NC1=O,-6.36

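Conditions beyond the assay type are not listed; see the original paper. The list need not hold all peptides of the study. Entries at the database's floor value (log10 P of -10) are not listed.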